Assays:
BCL-2 = molecular target: T1, BCL-2 (Homo sapiens, UniProt P10415); assay: BCL-2 inhibition by TR-FRET assay (cell-free); type: binding; details: read-out: IC50 against BCL-2
T1 construct: purchased BPS Bioscience
Procedure: (§1) The effectiveness of inhibiting the MCL-1 and BCL-2 proteins was evaluated using specific assay kits (BPS Bioscience, Sandiego, CA) and corresponding ligands for each protein. The test compounds were incubated with the proteins for 120 or 180 min, and the experiment was repeated three times using Sabutoclax as a positive control. The concentrations of the test compounds Comp-1 and Comp-6 and positive control ranged from 0.01, 0.1, 1.0, 10 μM. Measurements were taken of Tb-donor emission at 620 nm followed by dye-acceptor emission at 665 nm, and data analysis was performed using the TR-FRET ratio (665 nm emission/620 nm emission). The FRET value from the positive control was considered as full activity (100%) and the FRET value from the negative control was considered as zero percent activity. Then, % inhibitory activity of test compounds was calculated by the equation: % Activity=FRETS−FRETneg/FRETP−FRETneg×100%
(§2) Where FRETS, FRETneg, and FRETp are sample FRET, negative control FRET, and positive control FRET, respectively. The IC50 values of the test compounds were calculated by nonlinear regression analysis on GraphPad Prism 5 (GraphPad Inc., USA).

The chains behind the UniProt entries cited, without tags or fusion partners.
UniProt P10415, whole entry: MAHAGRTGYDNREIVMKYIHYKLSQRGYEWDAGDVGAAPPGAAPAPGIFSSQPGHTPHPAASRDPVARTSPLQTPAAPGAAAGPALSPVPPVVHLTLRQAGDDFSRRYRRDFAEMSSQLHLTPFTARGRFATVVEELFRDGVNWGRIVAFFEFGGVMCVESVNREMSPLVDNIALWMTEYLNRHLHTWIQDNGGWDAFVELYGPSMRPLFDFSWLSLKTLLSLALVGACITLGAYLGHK
UniProt Q07820, whole entry: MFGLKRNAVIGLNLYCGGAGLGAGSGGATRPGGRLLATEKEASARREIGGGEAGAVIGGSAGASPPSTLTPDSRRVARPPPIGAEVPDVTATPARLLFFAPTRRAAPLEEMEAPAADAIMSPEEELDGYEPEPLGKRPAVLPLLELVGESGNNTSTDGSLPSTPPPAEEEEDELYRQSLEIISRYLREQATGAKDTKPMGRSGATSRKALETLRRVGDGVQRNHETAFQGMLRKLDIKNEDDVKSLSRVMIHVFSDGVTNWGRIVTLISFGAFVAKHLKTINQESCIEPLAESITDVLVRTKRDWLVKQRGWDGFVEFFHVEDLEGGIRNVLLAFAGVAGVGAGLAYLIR

MCL-1 = molecular target: T2, MCL-1 (Homo sapiens, UniProt Q07820); assay: MCL-1 inhibition by TR-FRET assay (cell-free); type: binding; details: read-out: IC50 against MCL-1
T2 construct: purchased BPS Bioscience
Procedure: as §1, §2

Cc1cc2c(C(=O)NC[C@H](C)c3ccccc3)c(O)c(O)cc2c(O)c1-c1c(C)cc2c(C(=O)NC[C@H](C)c3ccccc3)c(O)c(O)cc2c1O [Sabutoclax, reference compound]
IC50 (BCL-2): 0.278 µM | IC50 (MCL-1): 0.251 µM
